{"sequences": {"note": "Sequences of proteins named here, by UniProt entry; tags and fusion partners are left off.", "UniProt P08183, whole entry": "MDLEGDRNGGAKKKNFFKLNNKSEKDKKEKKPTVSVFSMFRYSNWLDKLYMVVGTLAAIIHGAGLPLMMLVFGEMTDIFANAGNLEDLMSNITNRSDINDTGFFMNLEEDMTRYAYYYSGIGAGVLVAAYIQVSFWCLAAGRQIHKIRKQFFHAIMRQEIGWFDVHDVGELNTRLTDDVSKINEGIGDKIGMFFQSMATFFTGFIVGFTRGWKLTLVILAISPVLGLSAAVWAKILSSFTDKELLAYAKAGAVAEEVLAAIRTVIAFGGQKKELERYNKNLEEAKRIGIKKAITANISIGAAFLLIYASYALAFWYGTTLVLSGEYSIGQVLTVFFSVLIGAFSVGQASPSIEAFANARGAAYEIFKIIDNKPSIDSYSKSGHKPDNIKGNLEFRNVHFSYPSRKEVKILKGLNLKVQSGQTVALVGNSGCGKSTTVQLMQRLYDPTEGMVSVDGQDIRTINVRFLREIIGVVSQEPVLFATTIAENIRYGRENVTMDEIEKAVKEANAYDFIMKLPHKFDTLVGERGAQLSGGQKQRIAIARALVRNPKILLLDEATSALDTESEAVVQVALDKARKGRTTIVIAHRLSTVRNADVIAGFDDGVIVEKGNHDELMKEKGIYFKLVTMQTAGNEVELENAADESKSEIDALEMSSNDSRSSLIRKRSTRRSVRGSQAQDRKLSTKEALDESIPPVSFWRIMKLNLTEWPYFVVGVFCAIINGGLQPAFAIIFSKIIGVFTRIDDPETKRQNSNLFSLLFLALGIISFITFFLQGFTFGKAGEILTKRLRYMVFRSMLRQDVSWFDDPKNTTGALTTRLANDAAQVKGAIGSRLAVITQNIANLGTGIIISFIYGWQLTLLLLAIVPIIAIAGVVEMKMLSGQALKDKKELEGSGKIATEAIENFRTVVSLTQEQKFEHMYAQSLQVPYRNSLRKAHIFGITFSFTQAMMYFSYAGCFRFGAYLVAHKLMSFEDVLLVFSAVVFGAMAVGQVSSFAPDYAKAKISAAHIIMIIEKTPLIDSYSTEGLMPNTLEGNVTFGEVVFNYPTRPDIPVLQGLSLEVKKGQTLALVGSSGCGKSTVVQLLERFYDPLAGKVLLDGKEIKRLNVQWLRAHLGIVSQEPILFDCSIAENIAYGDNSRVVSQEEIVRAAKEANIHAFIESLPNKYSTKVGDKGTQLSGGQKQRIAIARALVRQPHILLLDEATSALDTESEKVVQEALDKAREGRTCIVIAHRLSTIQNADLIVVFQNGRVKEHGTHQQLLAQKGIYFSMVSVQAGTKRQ"}, "source": "PubChem BioAssay AID1326", "about": "(NMMLSC, 2008)", "note": "The entries are a selection whose mix differs from that of the whole data set. Some of these compounds have results that are not shown, active ones among them. Activity calls are given as the source filed them. Rule as the data show it: active = inhibition above about 40%; inactive = the rest.", "data": [{"molecular_target": "ATP-dependent translocase ABCB1 (Homo sapiens) (UniProt P08183)", "test": "blockers of ABCB1-mediated dye efflux – cell-based, multiplex, flow cytometry, ABCG2 counter-screen, primary screen (AID 1326);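 also: 0% = vehicle and 100% = reference inhibitor; higher value means more JC-1 retained so stronger ABCB1 efflux block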", "settings": "CCRF-Adr cells, JC-1 efflux, at 6.6 µM, stronger effect = higher value", "values": [{"compound": "O=C(NCC1(N2CCCCC2)CCCCC1)c1cc([N+](=O)[O-])ccc1Cl", "inhibition": "inactive: 1.58%"}, {"compound": "CC(C)N1C(=O)CC2(CCN(CCOC(=O)C(O)(c3ccccc3)c3ccccc3)CC2)C1=O", "inhibition": "inactive: 0.23%"}, {"compound": "CN(C)C1CCCC1OC(=O)C(O)(c1ccccc1)c1ccccc1", "note": "(centres undefined)", "inhibition": "inactive: 1.16%"}, {"compound": "Cc1ccccc1C(=O)NCC1(N2CCCCC2)CCCCC1", "inhibition": "inactive: 0.16%"}, {"compound": "CCN1CCCC(OC(=O)C2(O)c3ccccc3C=Cc3ccccc32)C1", "note": "(centres undefined)", "inhibition": "inactive: 0.18%"}, {"compound": "C=CCN1CCN(CCOC(=O)C(O)(c2ccccc2)c2ccccc2)CC1", "inhibition": "inactive: 0.38%"}, {"compound": "COc1cccc(C(=O)NCC2(N3CCCCC3)CCCCC2)c1", "inhibition": "inactive: -0.03%"}, {"compound": "O=C(OC1CN2CCC1CC2)C(CO)(c1ccccc1)c1ccccc1", "note": "(centres undefined)", "inhibition": "inactive: 0.48%"}, {"compound": "CN(C)c1cccc(C(=O)NCC2(N(C)C)CCCCC2)c1", "inhibition": "inactive: 0.75%"}]}]}
